Measured values published in patent US7888059B2, “Highly purified and stabilized Na,K-ATPase isoforms and methods of producing same” (Yeda Research and Development Co. Ltd., priority 2006, dated 2011).

Target: T1, human α1β1 (Homo sapiens, UniProt P05023)
T1 construct: The coding regions were excised with XbaI and subcloned; made in house; host or cells: Pichia pastoris SMD1165
Assay: Stabilization of human α1β1 Na,K-ATPase activity over time (lipids, sterols, FXYD1)
Type: biochemical
Conditions: 45° C.; human α1β1 prepared with SOPS/cholesterol and PLM
Method: Urea-treated membranes were homogenized with n-dodecyl-β-maltoside (DDM:protein, 2:1 w/w) (cat. No D310, Anatrace) in a medium containing NaCl, 250 mM; Tris.HCl, 20 mM pH 7.4; imidazole, 5 mM; PMSF, 0.5 mM; and glycerol, 10%. The protein concentration could be varied from 1-5 mg/ml and DDM adjusted accordingly from 2-10 mg/ml respectively. The unsolubilized material was removed by ultracentrifugation. Purification was done by metal-chelate chromatography using BD Talon, metal affinity resin (Co^2+-chelate). The DDM-solubilized membranes were incubated overnight at 4° C. with BD Talon beads, at a ratio of 100 μl beads per supernatant from 10 mg of membranes. EDTA was added at 50-250 μM at protein concentrations 1-5 mg/ml, respectively. The beads were washed twice for five minutes with vortexing with five volumes of a solution containing NaCl, 100 mM; Tris.HCl, 20 mM pH 7.4; C12E8, 0.1 mg/ml; DOPS or SOPS 0.05 mg/ml or other lipids and cholesterol at 0.01 mg/ml, as indicated; glycerol, 10%, and imidazole, 10 mM. […] Protein concentration was determined by comparative gel densitometry with pig kidney Na^+,K^+-ATPase or by Lowry assay. […]

With “PLM: human FXYD1, subsidiary subunit of Na,K-ATPase, Genbank Accession No. H23593” the “stability of Na,K-ATPase activity” value was “essentially stable over 150 minutes at 45 °C”.
